Results taken from publication PMC6923452, “SHBG141–161 Domain-Peptide Stimulates GPRC6A-Mediated Response in Leydig and β-Langerhans cell lines” (Scientific Reports, 2019).

System: MA-10 cells
Experiment: Testosterone (T) release from Leydig MA-10 cells (GPRC6A-mediated)
Type: cell-based, Mouse
Details: hCG 2,5 nM; 48 hours; reference agonist
From the text: Human ucOCN was obtained from chemical decarboxylation of cxOCN, purchased from Bachem AG (Bachem, Bubendorf, Switzerland), as previously described. For displacement experiments, an aliquot ucOCN underwent chemical biotinylation as previously described[9],[41]. Unliganded human SHBG was purchased by […], Belgium). Human chorionic gonadotropin Gonasi was purchased by IBSA Farmaceutici Srl (Italy). […] After extensive washing, primary immunoreaction was detected by appropriate secondary reagent, respectively: biotin conjugated-anti rabbit IgG (dilution 1:100; Vector Laboratories, Peterborough, UK; RRID: BA-1000) followed by Streptavidin […], (dilution 1:100; GeneTex/Prodotti Gianni, Milano, Italy; RRID: GTX85907) and FITC conjugated-anti goat IgG (dilution 1:100; Abcam, Milan, Italy; RRID: ab6737). Samples were then counterstained with 4',6-diamidino-2-phenylindole (DAPI), mounted with anti-fade buffer and then analyzed with Video-Confocal (VICO) fluorescence microscope (Nikon, Firenze, Italy). […] Results of binding and stimulation experiments are reported as mean values ± standard deviation (SD) of five independent experiments, expressed as fold increase with respect of basal conditions.

Question: “hCG: Human chorionic gonadotropin Gonasi was purchased by IBSA Farmaceutici Srl [reference compound]” was tested. Which “T release vs basal” value did it give?
Answer: efficiently stimulated T release
